Data on three compounds can be found in ChEMBL document CHEMBL4834454, “Rational design of cannabinoid type-1 receptor allosteric modulators: Org27569 and PSNCBAM-1 hybrids” (Bioorg Med Chem, 2021).

Chains of the proteins cited; added tags and fusions are not shown.
UniProt P21554, whole entry: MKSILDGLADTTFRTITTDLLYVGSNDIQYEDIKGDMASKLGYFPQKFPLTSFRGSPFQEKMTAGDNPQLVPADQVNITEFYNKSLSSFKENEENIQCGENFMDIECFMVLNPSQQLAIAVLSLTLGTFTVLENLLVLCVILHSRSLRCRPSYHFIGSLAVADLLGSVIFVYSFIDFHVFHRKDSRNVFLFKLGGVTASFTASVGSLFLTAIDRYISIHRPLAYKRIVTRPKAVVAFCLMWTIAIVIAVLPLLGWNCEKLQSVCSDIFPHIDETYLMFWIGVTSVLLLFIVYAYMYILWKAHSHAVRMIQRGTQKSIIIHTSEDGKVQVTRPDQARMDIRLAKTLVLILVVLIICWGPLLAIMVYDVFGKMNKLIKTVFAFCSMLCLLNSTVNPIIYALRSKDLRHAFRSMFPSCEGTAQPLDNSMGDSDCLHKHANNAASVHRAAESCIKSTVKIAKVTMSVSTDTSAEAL

Assay [1] has as its target T1, Cannabinoid receptor 1 (Homo sapiens, UniProt P21554). Nature of the assay: Agonist activity at human CB1 receptor expressed in CHO-RD-HGA16 cells overexpressing Galpha16 assessed as stimulation of calcium mobilization measured every 1 sec for 90 secs by Calcium-3 dye based FLIPR assay relative to Emax of CP55940. The assay is classed as functional, cell-based. The note with it: time 90.0 sec. In short, it runs like this:
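Agonist screen. […] They were pretreated with vehicle (BSA/DMSO/EtOH buffer) for 15 min, and a single concentration of test compound was added at 10 s. Fluorescence (485/525 nm) was read for 90 s. RFU is expressed as % of CP55,940 Emax RFU. Line 1 uses hCB1 cells; line 2 uses hCB2 cells.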
(Calcium flux is commonly read through the fluorescence of an indicator in the cells.)

For assay [2], the target named is T1, Cannabinoid receptor 1. To be noted: HEK293, Membrane, filed as allosteric antagonist, time 60.0 min.
Assay [3] concerns the target T1, Cannabinoid receptor 1. Nature of the assay: biochemical.
In assay [4] the target is T1, Cannabinoid receptor 1. The experiment in a line: Allosteric antagonist activity at human CB1 receptor expressed in CHO-RD-HGA16 cells overexpressing Galpha16 assessed as inhibition of CP55940-stimulated calcium mobilization preincubated for 15 mins followed by agonist addition and measured every 1 sec for 90 secs by Calcium-3 dye based FLIPR assay. The assay is classed as functional, cell-based.

For the compound `O=C(NCCc1ccc(N2CCCCC2)cc1)Nc1ccc(Cl)cc1`, on Cannabinoid receptor 1 [1], the Activity is less than 30%. In addition, at Cannabinoid receptor 1 [2], the pKb (usually −log10 of the Kb, conventionally taken in molar units) was 4.4.

In the case of `O=C(NCCc1ccccc1)Nc1ccc(Cl)cc1`, at Cannabinoid receptor 1 [1], the Activity is less than 30%.

Turning to `O=C(Nc1ccc(Cl)cc1)Nc1cccc(-c2cccc(N3CCCC3)n2)c1`, the IC50 (usually the concentration that gives 50% inhibition) is 100 nM on Cannabinoid receptor 1 [3] and 31.6 nM at Cannabinoid receptor 1 [4].
